US20140121237A1, “Methods for Inhibiting Virus Replication” (priority 2011, published 2014)

Protein sequences, listed by entry. Tags and fused reporters are not part of them. Lines headed by an entry give the natural chain unless they say otherwise; changes in a name come on top.
UniProt P30305: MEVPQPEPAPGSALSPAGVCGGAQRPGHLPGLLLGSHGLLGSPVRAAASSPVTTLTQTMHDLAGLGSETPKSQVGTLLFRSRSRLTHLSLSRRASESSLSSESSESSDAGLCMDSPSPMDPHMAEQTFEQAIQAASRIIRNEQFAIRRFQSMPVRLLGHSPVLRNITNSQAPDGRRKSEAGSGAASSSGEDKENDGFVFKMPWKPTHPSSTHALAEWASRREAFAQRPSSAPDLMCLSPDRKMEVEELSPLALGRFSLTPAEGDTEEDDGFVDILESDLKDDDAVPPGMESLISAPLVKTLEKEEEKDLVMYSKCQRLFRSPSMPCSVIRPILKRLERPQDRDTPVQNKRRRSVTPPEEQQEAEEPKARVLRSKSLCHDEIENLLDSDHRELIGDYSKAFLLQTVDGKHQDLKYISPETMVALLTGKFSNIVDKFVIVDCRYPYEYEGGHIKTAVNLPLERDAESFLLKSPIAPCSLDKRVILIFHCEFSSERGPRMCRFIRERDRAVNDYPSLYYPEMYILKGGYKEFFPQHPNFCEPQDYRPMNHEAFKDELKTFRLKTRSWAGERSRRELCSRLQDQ

Biological target: CDC25B (Homo sapiens, UniProt P30305)
Assay: Western blot of CDC25B protein in BEAS2B cells (Example 1)
Conditions: anti-CDC25B antibody

## 2,3-bis-[2-hydroxyethylsulfanyl]-[1,4]naphthoquinone
  amount of CDC25B protein (65 KDa band): decreased the amount of CDC25B protein
